This passage reports Ki results from patent publication US6448405B1, “Steroid receptor modulator compounds and methods” (Ligand Pharmaceuticals Incorporated, priority 1994, dated 2002).

Chains of the proteins cited; added tags and fusions are not shown. Lines headed by an entry give the natural chain unless they say otherwise; changes in a name come on top.
UniProt P10275: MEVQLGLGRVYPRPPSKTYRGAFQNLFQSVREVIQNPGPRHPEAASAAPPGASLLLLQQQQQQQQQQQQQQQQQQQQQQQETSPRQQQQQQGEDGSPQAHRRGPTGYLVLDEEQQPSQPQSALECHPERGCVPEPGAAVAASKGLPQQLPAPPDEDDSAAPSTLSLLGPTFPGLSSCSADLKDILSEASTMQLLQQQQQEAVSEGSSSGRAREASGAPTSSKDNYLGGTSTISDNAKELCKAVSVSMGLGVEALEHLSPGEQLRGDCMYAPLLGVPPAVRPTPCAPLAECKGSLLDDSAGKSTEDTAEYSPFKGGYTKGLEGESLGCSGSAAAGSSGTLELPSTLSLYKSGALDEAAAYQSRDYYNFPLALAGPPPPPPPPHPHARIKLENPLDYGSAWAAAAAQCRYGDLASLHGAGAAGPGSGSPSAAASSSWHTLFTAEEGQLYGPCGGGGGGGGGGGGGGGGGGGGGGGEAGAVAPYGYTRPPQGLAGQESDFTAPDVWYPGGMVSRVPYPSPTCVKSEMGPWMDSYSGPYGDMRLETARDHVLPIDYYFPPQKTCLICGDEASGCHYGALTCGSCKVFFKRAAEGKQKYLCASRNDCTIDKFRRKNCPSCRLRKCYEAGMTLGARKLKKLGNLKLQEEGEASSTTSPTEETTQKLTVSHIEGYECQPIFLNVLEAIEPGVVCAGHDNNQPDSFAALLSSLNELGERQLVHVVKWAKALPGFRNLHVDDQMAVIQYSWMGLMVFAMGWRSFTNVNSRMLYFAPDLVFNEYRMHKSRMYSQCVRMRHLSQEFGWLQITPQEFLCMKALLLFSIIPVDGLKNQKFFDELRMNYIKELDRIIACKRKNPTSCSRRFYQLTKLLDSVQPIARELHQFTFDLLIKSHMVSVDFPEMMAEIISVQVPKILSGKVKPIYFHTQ

Usually Ki stands for the equilibrium dissociation constant of an inhibitor or competing ligand from its target.

The target in this assay is human AR (Homo sapiens, UniProt P10275). Description: AR whole cell binding assay, transfected COS-1 cells, 3H-DHT. As to conditions: read-out: AR Binding Ki; competition with 1 nM 3H-DHT, COS-1 whole cells, three hours at 37° C.

As for “(R/S)-4-Ethyl-1,2,3,4-tetrahydro-1-methyl-8-pyranono[5,6-g]quinoline [Compound 416]”, the Ki came to 388 nM.
